miR-122 sensor: miR-122 inhibition in Huh7 cells | activation (reporter increase), % at 12.5 µM | Huh7 miR-122 Renilla luciferase sensor, 48 h; neutral wells = 0, positive control = 100 | AID 602342 | 340,000 compounds, 0.3% hits;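 active = mean replicate activation score at least 90 and every replicate individually at or above 90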;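 also: higher luciferase means less miR-122 activity so hits act as miR-122 inhibitors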
Cneo AK release: Cryptococcus neoformans lysis via adenylate kinase release. C. neoformans lysis, adenylate kinase release luminescence, 4 h; normalised: neutral wells 0, clomiphene wells 100. lysis activity, % at 15 µM. 360,000 compounds, 0.2% hits. AID 651654;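 active = mean lysis activity across replicates of at least 80%, whatever share of replicates individually reach that level; inactive = mean lysis activity below 80%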
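Assay system: Cryptococcus neoformans yeast cells / Dosing: single-point compound dose / Timing: 4 h at 37 °C static, read 1 h later / Measured by: luminescence of released adenylate kinase using an AK detection reagent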
Yeast UUG start: alters start codon recognition fidelity in yeast. S. cerevisiae UUG-firefly luciferase reporter, luminescence/redox ratio. 350,000 tested, 0.13% active. activity score, % at 18.7 µM. AID 602363;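 active means replicate mean at a twofold rise or more, about +100% in these data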;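 further: firefly luciferase made from a UUG start codon reports start codon fidelity; reporter light over untreated wells divided by growth signal over untreated wells; some hits fall short of that in this replicate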
Statin myotox sup: protects C2C12 myotubes from simvastatin toxicity. 330,000 compounds, 0.78% hits. AID 602340. ATP luminescence, 48 h; scaled: DMSO 0, geranylgeraniol control 100. rescue of ATP level, % at 7.49 µM;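 active = mean ATP rescue above about 67%, or every replicate alone reaching that limit, limit read from the data, passing the limit was not always enough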;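 also: myotubes were challenged with 10 µM simvastatin during compound exposure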
Hits are given with their value; . = inactive; / = not tested or not shown. An excerpt weighted towards active compounds, which were near 1.2% of everything screened.

SMILES | miR-122 sensor | Cneo AK release | Yeast UUG start | Statin myotox sup
CCOC(=O)C1=C(C(C)=O)C(c2cccnc2)C(C#N)=C(N)O1 (centres undefined) | . | / | / | 118
CCOC(=O)C1=C(CSc2nc(-c3ccncc3)ccc2C#N)OC(N)=C(C#N)C1c1cccnc1 (centres undefined) | . | . | . | .
COc1ccc(-c2nn(-c3ccccc3)cc2CO)cc1 | . | . | . | 99
Cn1c(=S)oc2ccccc21 | . | . | . | 89
Cc1ccc(CC2CC(=O)N(CCc3ccc4c(c3)OCO4)C2=O)cc1 (centres undefined) | . | . | . | 147
COc1cccc(CC2CC(=O)N(CCc3ccc4c(c3)OCO4)C2=O)c1 (centres undefined) | . | . | . | .
CCn1c(C)cc2c(c1=O)C(c1ccncc1)C(C#N)=C(N)O2 (centres undefined) | . | . | . | .
Cc1cc2c(c(=O)n1CCN(C)C)C(c1ccccc1Br)C(C#N)=C(N)O2 (centres undefined) | . | / | / | 90
Cc1cc2c(c(=O)n1Cc1cccnc1)C(c1ccc(F)cc1)C(C#N)=C(N)O2 (centres undefined) | . | / | / | 110
CCCC(=O)Nc1ccc2c(c1)C(=O)N(C)[C@H]1CC[C@@H](CC(=O)NCC3CCCCC3)O[C@H]1CO2 | . | . | . | .
COCC(=O)Nc1ccc2c(c1)OC[C@@H](C)N(C(=O)COC)C[C@H](C)[C@@H](OC)CN(C)C2=O | / | . | . | .
CC(=O)N1CCc2cc(Br)cc(S(=O)(=O)NCc3ccc(Cl)cc3)c21 | 110 | . | . | .
CCC(=O)N1CCc2cc(Br)cc(S(=O)(=O)CC(=O)OC)c21 | . | . | . | 105
COc1ccc(S(=O)(=O)N(C)C[C@H]2OCCCC[C@H](C)Oc3ccc(NS(=O)(=O)c4ccc(C)cc4)cc3C(=O)N([C@@H](C)CO)C[C@@H]2C)cc1 | . | . | . | .
CO[C@H]1CN(C)C(=O)c2ccc(NC(=O)C3CC3)cc2OC[C@@H](C)N(C(=O)c2ccccc2)C[C@@H]1C | / | . | . | .
C[C@@H]1CN([C@@H](C)CO)C(=O)c2cc(C3=CCCC3)cnc2O[C@@H]1CN(C)C(=O)C1CC1 | . | / | / | .
COC(=O)c1c(NC(C)=O)sc(Cc2ccccc2)c1C | 153 | . | . | .
COC(=O)c1c(NC(=O)c2ccccc2)sc(Cc2ccccc2)c1C | . | . | . | .
C[C@H]1CN([C@@H](C)CO)C(=O)Cc2cc(NS(C)(=O)=O)ccc2O[C@H]1CN(C)Cc1ccccc1 | . | . | . | .
CSc1ccc(CNc2ccccn2)cc1 | . | . | . | 82
CC(C)Cc1nc2sc3c(=O)[nH]cnc3c2c2c1CCC2 | 126 | . | . | .
C/C=C/c1ccc([C@@H]2[C@@H](CO)N(C(C)=O)[C@H]2CN(C)S(C)(=O)=O)cc1 | . | . | . | .
CCC(C)[C@H](NC(=O)Nc1ccc(C(C)=O)cc1)C(=O)OC (some centres undefined) | . | . | . | 93
CN1C(=O)c2cc(NC(=O)Nc3ccccc3)ccc2OC[C@@H]2O[C@@H](CC(=O)NC3CCC3)CC[C@H]21 | . | . | . | .
O=C(NCc1ccccc1)c1cccc(COc2cccc(Cl)c2)c1 | . | . | . | /
SMILES | miR-122 sensor | Cneo AK release | Yeast UUG start | Statin myotox sup
O=C(NCc1ccccc1)Oc1cccc(Cl)c1 | . | . | . | 106
CO[C@H](CN(C)S(=O)(=O)c1ccc(C)cc1)[C@@H](C)CN([C@@H](C)CO)S(=O)(=O)c1cccc(Cl)c1 | / | . | / | .
CCc1nnc(NC(=O)CSc2nnc(-c3ccc(NS(=O)(=O)c4ccccc4)cc3)o2)s1 | . | . | . | 108
COc1ccccc1NC(=O)N1CCN(c2cccc(C(F)(F)F)c2)CC1 | . | . | . | 123
O=C(Nc1ncnc2sc3c(c12)CCCCC3)c1ccco1 | . | / | / | 128
COc1cccc(NC(=O)N(C)C[C@@H]2OCc3cn(nn3)CCCC(=O)N([C@@H](C)CO)C[C@@H]2C)c1 | . | / | / | .
C(=N\c1nccs1)/c1cccnc1 | . | . | . | 112
COc1cccc(NS(=O)(=O)c2ccc3c(c2)CCN3C(C)=O)c1 | / | . | . | .
CC(=O)N1CCCc2cc(S(=O)(=O)Nc3ccc4c(c3)OCO4)ccc21 | 268 | . | . | .
CC(=O)N1CCc2cc(S(=O)(=O)Nc3cccc(C(F)(F)F)c3)ccc21 | 100 | . | . | .
O=C(CNC(=O)c1cnccc1C(F)(F)F)c1cccc(Cl)c1 | . | . | . | 78
O=C(NNC(=O)c1cnccc1C(F)(F)F)c1cccc(Cl)c1 | . | . | . | .
